In US20080045495A1, “Treatment of Patients with Cystic Disease by Alteration of Fibrocystin Proteolysis” (BOARD OF REGENTS, THE UNIVERSITY OF TEXAS SYSTEM, priority 2006, published 2008) one finds fibrocystin cleavage data, which are given here for one molecule.

SMILES strings stand for the structures.

In this experiment the test system is fibrocystin cleavage in HEK-293(m3) cells. Conditions: 100 μM carbachol, 16 hours, FIG. 4E. As to the method:
FIG. 4 A is an image of a gel illustrating mIMCD3/FC cells were grown for 4 days and incubated with 0.1 μM thapsigargin (lane 2), 5 mM caffeine (lane 3), 75 μM dantrolene (lane 5), 200 μM ruthenium red (lane 7), or no additions (lanes 1, 4 and 6). After 2 hours, media were replaced with media lacking serum but containing the same supplements, and, in addition, 10 nM mifeprisone. Cell lysates were prepared after 24 hours and analyzed by immunoblotting using anti-V5 antibody. FIG. 4B is a graph of mIMCD-3 cells were transfected with 0.2 μg pG5-luc and either 0.2 μg pFC-GV or 0.2 μg pLDLR-GV. After 24 hours, cells were incubated in serum-free media in the presence or absence of 75 μM dantrolene. Relative luciferase activity was determined after 48 h. Data presented are mean ±SE of three separate transfections. The fibrocystin/Gal4-VP16 fusion protein is shown schematically below. Shaded box indicates the transmembrane segment; filled boxes indicate the N-terminal signal sequence and the C-terminal Gal4-VP16 fusion protein. […] Cells were lysed after 16 h, and extracts were analyzed by immunoblotting using anti-V5 antibody. […] Luciferase activity was measured after 12 hours. […] Cells were lysed after 16 hours, and extracts were analyzed by immunoblotting using anti-V5 antibody.

As for `C[N+](C)(C)CCOC(N)=O` [carbachol], the fibrocystin cleavage result is recorded as “induced fibrocystin cleavage”.
